Values of other authors in patent EP1366765A1, “Use of matrix metalloproteinase inhibitors for treating neurological disorders and promoting wound healing” (priority 1996, dated 1998).
pIC50: −log10 of the molar value.

Target: T1, MMP-1 (Homo sapiens, UniProt P03956)
T1 sequence (P03956 100-469): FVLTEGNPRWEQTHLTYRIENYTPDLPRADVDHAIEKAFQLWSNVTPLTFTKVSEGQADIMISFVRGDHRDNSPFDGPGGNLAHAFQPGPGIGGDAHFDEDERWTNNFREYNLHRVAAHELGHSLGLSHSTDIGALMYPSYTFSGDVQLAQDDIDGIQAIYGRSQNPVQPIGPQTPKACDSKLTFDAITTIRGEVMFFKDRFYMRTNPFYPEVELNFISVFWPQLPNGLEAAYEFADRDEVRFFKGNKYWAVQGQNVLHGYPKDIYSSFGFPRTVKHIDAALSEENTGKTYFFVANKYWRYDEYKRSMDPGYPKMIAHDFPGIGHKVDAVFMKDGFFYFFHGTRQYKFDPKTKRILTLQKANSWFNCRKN
Conditions: IA = inactive; cited from earlier work

For COc1ccc(S(=O)(=O)N(Cc2cccnc2)[C@@H](C(=O)NO)C(C)C)cc1 [Compound 40], the pIC50 is listed as 6.42.
